For the assay, the target named is T1, P450RAI-1 (Homo sapiens, UniProt O43174).
T1 construct: expressed in transfected cells; host or cells: HeLa (stably transfected, hygromycin selection)
T1 sequence (O43174 1-497): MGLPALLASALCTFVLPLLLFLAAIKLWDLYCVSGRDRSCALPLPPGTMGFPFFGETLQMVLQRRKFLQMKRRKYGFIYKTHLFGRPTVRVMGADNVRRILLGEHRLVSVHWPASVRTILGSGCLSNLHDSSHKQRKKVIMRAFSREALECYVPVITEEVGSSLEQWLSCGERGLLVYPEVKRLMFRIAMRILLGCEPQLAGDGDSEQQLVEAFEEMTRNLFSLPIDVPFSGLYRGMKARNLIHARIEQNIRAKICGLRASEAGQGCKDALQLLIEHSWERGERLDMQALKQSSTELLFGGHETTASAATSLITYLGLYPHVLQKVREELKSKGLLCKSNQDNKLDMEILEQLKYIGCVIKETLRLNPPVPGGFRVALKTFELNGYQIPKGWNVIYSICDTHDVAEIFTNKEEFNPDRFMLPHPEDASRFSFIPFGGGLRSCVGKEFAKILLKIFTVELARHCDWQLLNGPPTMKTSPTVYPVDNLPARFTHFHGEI
Nature of the assay: P450RAI-1 cell-based inhibitor assay (intact HeLa). The note with it: P450RAI-1 stably transfected HeLa cells, [3H]-RA, 3 hours at 37° C.; inhibition of all-trans-RA metabolism by 50 percent.

IC50 data for two substances are collected here from patent US6855512B2, “Methods for identifying inhibitors of cytochrome P450RAI” (Allergan, Inc., priority 2000, dated 2005).

In turn, “4-(4-Imidazol-1-yl-methyl-3-methyl-phenylethynyl)-benzoic acid [Compound 119]” came in with a half-inhibitory concentration (IC50) of 400 nM. In the case of “[4-(4-Imidazol-1-yl-methyl-3-isopropyl-phenylethynyl)-phenyl]-acetic acid [Compound 127]” it was 400 nM.

As a reminder, the IC50 is the point on the concentration scale where inhibition reaches its midpoint. Read a high IC50 as lower potency.
